Consider 1 substance from PMC2860599.

The assay deals with β2-monomeric yellow fluorescent protein (β2-mYFP). As to the kind of experiment: FRET or BRET. For orientation: BRET reads energy transfer from a luciferase to a nearby fluorophore.

The substance “αM-monomeric cyan fluorescent protein (αM-mCFP) (from UniProt P11215 17-1152) (receptor)” registered an FRET efficiency of 0.2.
